Assay results published in PubChem BioAssay AID1947 (The Scripps Research Institute Molecular Screening Center, 2009).
Only a part is listed here, and it is no random draw. Active and inactive are the calls of the source.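 The calls were made as follows: active = inhibition above the screen mean inhibition plus 3 SD, computed separately per campaign (cut at about 18% in these data); inactive = the rest.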

Each molecule was assayed on Fam108B (ABHD17B) serine hydrolase [Mus musculus] (assay: inhibition of Fam108B (ABHD17B) hydrolase – biochemical, fluorescence polarization, counter-screen for RBBP9 inhibitor project, primary screen (AID 1947;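 also: inhibitors lower polarization as less probe binds the enzyme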)). Conditions: recombinant Fam108B, FP-Rh probe fluorescence polarization; at 9.51 µM; active compounds read high.

Compound | inhibition
CC1=NCCc2c1[nH]c1ccccc21.O=[N+]([O-])c1cc([N+](=O)[O-])c(O)c([N+](=O)[O-])c1 | inactive: 1.31%
O=C(O)c1cccc(Nc2c([N+](=O)[O-])cc([N+](=O)[O-])cc2[N+](=O)[O-])c1 | inactive: 3.74%
Cc1ccc(C)c(NP(C)(=O)Oc2ccccc2)c1 (configuration not stated) | inactive: -1.52%
Cc1cc(C)cc(OP(C)(=O)Nc2ccccn2)c1 (configuration not stated) | inactive: -2.04%
CP(=O)(Nc1cccc(Br)c1)Oc1ccccc1 (configuration not stated) | inactive: -1.15%
COc1ccccc1OP(C)(=O)Nc1cccc(Br)c1 (configuration not stated) | inactive: -1.16%
CCOC(=O)c1ccc(NP(C)(=O)Oc2cc(C)cc(C)c2)cc1 (configuration not stated) | inactive: 3.57%
Cc1cc(C)cc(OP(C)(=O)Nc2ccc(C)cc2C)c1 (configuration not stated) | inactive: -1.78%
O=[N+]([O-])c1cc([N+](=O)[O-])c(-c2cnn(-c3ccccc3)c2)c([N+](=O)[O-])c1 | inactive: 0.77%
Cc1nc2ccc3ccccc3c2s1.O=[N+]([O-])c1cc([N+](=O)[O-])c(O)c([N+](=O)[O-])c1 | inactive: 2.8%
O=[N+]([O-])c1cc([N+](=O)[O-])c(-n2nnc3ccccc32)c([N+](=O)[O-])c1 | inactive: 0.32%
COc1ccccc1OP(C)(=O)Nc1c(C)cccc1C (configuration not stated) | inactive: -0.26%
CN1CCCCC1COC(=O)C1(O)c2ccccc2CCc2ccccc21 (configuration not stated) | inactive: -0.01%
CCCOc1ccc(NP(C)(=O)Oc2ccc(Cl)cc2)cc1 (configuration not stated) | inactive: 4.64%
CP(=O)(Nc1ccc(SC(F)(F)F)cc1)Oc1ccccc1 (configuration not stated) | inactive: 4.13%
CCOC(=O)C(CC)C1=NC(C)(C)Cc2ccccc21.O=[N+]([O-])c1cc([N+](=O)[O-])c(O)c([N+](=O)[O-])c1 (configuration not stated) | inactive: -3.03%
CC1=C2N=C(C=C3N=C(C(C)=C4[N-][C@@](C)([C@@H]5N=C1[C@](C)(CCC(=O)NC[C@@H](C)OP(=O)([O-])O[C@H]1[C@@H](O)[C@@H](n6cnc7cc(C)c(C)cc76)O[C@@H]1CO)[C@H]5CC(N)=O)[C@@](C)(CC(N)=O)[C@@H]4CCC(N)=O)[C@@](C)(CC(N)=O)[C@@H]3CCC(N)=O)C(C)(C)[C@@H]2CCC(N)=O.[C-]#N.[Co+3] | inactive: -0.47%
O=[N+]([O-])c1cc([N+](=O)[O-])c(Nc2nnnn2CCO)c([N+](=O)[O-])c1 | inactive: -2.61%
CP(=S)(Nn1cnnc1)Oc1ccccc1 (configuration not stated) | inactive: 3.88%

Compound | inhibition
CP(=O)(Nc1ccccc1Br)Oc1ccccc1 (configuration not stated) | inactive: 4.75%
COc1ccccc1OP(C)(=O)Nc1ccccc1 (configuration not stated) | inactive: -0.97%
CCOC(=O)c1ccc(NP(C)(=O)Oc2ccc(OC)cc2)cc1 (configuration not stated) | inactive: -6.54%
O=[N+]([O-])c1cc([N+](=O)[O-])c(O)c([N+](=O)[O-])c1.c1ccc(Oc2ccncc2)cc1 | inactive: 3.64%
CCOP(C)(=S)SCC(=O)NC(C)C(=O)O (configuration not stated) | inactive: -5.94%
CP(=O)(Nc1ccccn1)Oc1ccc(Cl)cc1 (configuration not stated) | inactive: 11.2%
CP(=O)(Oc1ccccc1)OC(c1ccccc1)C(F)(F)F (configuration not stated) | inactive: 1.89%
Cc1cccc(C)c1OP(C)(=O)Nc1ccc(SC(F)(F)F)cc1 (configuration not stated) | inactive: 2.51%
CP(=O)(Nc1ccc(SC(F)(F)F)cc1)Oc1ccc(Cl)cc1 (configuration not stated) | inactive: -2.75%
Cc1cc(C)cc(OP(C)(=O)Nc2ccc(SC(F)(F)F)cc2)c1 (configuration not stated) | inactive: 4.6%
CP(=O)(NC(=O)Nc1ccccc1)Oc1ccccc1 (configuration not stated) | inactive: 3.4%
CCc1ccc(OP(C)(=O)N2CCN(c3ccc([N+](=O)[O-])cc3)CC2)cc1 (configuration not stated) | inactive: 3.95%
CCN(CC)CCCOC(=O)C(O)(c1ccccc1)c1ccccc1 | inactive: 2.66%
Cc1ccc(NP(C)(=O)Oc2ccccc2)c(C)c1 (configuration not stated) | inactive: -0.28%
COc1ccccc1OP(C)(=O)Nc1ccc(C)cc1 (configuration not stated) | inactive: 3.56%
CCOC(=O)c1ccc(NP(C)(=O)Oc2ccccc2)cc1 (configuration not stated) | inactive: -4%
Cc1cc(C)cc(OP(C)(N)=O)c1 (configuration not stated) | inactive: 3.58%
COc1ccc(OP(C)(=O)Nc2cccc(F)c2)cc1 (configuration not stated) | inactive: 0.08%
COc1ccccc1OP(C)(=O)Nc1cc(Cl)ccc1C (configuration not stated) | inactive: -3.11%

Compound | inhibition
O=[N+]([O-])c1cc([N+](=O)[O-])c(Nc2cccnc2)c([N+](=O)[O-])c1 | inactive: 1.47%
O=[N+]([O-])c1ccc2c(c1)C=Nc1ccccc1O2 | inactive: 5.03%
Cc1cccc(C)c1OP(C)(N)=O (configuration not stated) | inactive: -0.93%
CC(C)(C)c1ccc(OP(C)(=O)Nc2ccc(SC(F)(F)F)cc2)cc1 (configuration not stated) | inactive: -0.44%
Cc1nc2ccc3ccccc3c2o1.O=[N+]([O-])c1cc([N+](=O)[O-])c(O)c([N+](=O)[O-])c1 | inactive: 2.06%
CP(=O)(Nc1ccc(Cl)cc1Cl)Oc1ccccc1 (configuration not stated) | inactive: -0.16%
CP(=O)(OCCOc1ccccc1)OCCOc1ccccc1 | inactive: 4.66%
Cc1cc(C)cc(OP(C)(=O)Nc2cccc(C(F)(F)F)c2)c1 (configuration not stated) | inactive: 1.98%
COc1ccccc1OP(C)(=O)Nc1ccc(C)c(C)c1 (configuration not stated) | inactive: -1.17%
COc1ccc(OP(C)(=O)Nc2ccccc2Br)cc1 (configuration not stated) | inactive: 2.53%
Cc1c(NP(C)(=O)Oc2ccc(C(C)C)cc2)c(=O)n(-c2ccccc2)n1C (configuration not stated) | inactive: -0.26%
O=[N+]([O-])c1cc([N+](=O)[O-])c(Nc2ccccn2)c([N+](=O)[O-])c1 | inactive: 2.69%
COc1ccccc1OP(C)(=O)Nc1ccc(C)cc1C (configuration not stated) | inactive: -3.38%
CP(=O)(Nc1ccccn1)Oc1ccccc1 (configuration not stated) | inactive: 0.79%
CCc1ccc(OP(C)(=O)O)cc1 | inactive: 2.92%
COc1ccccc1OP(C)(=O)Nc1ccc(Br)cc1 (configuration not stated) | inactive: -3.32%
COc1ccc(OP(C)(=O)Nc2ccccn2)cc1 (configuration not stated) | inactive: 1.23%
CN(C)CCOC(=O)C(O)(c1ccccc1)C1CCCC1 (configuration not stated) | inactive: 1.02%
COc1ccccc1OP(C)(=O)Nc1ccccc1Br (configuration not stated) | inactive: 3.42%
